Holding throughout (assay): cells
Assay [1] has as its system Ba/F3-FGFR1-transfected cells. Particulars: read-out: BAF3-FGFR1 (MIN IL3 pIC50) (converted).
Assay [2] concerns Ba/F3-FGFR3-transfected cells. Particulars: read-out: BAF3-FGFR3 (MIN IL3 pIC50) (converted).
In assay [3] the test system is Ba/F3-KDR-transfected cells. Particulars: read-out: BAF3-KDR (MIN IL3 pIC50) (converted).
The test system of assay [4] is Ba/F3-FGFR4-transfected cells. The note with it: read-out: BAF3-FGFR4 (pIC50) (converted).

Some results are limits rather than exact numbers.

Regarding `COc1cc(OC)c(F)c(N(Cc2nccn2S(=O)(=O)N(C)C)c2ncc3ncc(-c4cnn(C)c4)nc3n2)c1F` [Compound 1], the IC50 is 100 nM in assay [1], 100 nM in assay [2], 7.94 µM in assay [3] and 1580 nM in assay [4].
Regarding `COc1cc(OC)c(F)c(N(Cc2ncc[nH]2)c2ncc3ncc(-c4cnn(C)c4)nc3n2)c1F` [Compound 2], the values for the IC50 in assay [2] and in assay [3] were around 7.94 nM and around 0.794 µM, respectively.
Consider `COc1cc(OC)c(F)c(N(C[C@@H]2CCC(=O)N2)c2ncc3ncc(-c4cnn(C)c4)nc3n2)c1` [Compound 11], for which the IC50 in assay [3] was above 10 µM.
The same measure, in the same setting: next, `COc1cc(OC)c(F)c(N(C[C@H]2CCC(=O)N2)c2ncc3ncc(-c4cnn(C)c4)nc3n2)c1` [Compound 10]: above 10 µM.
The same measure, in the same setting: for `COc1cc(OC)c(F)c(N(Cc2ncc[nH]2)c2ncc3ncc(-c4cnn(C)c4)nc3n2)c1` [Compound 13] the value was 3.98 µM.

Values taken from patent US10272087B2, “Pteridines as FGFR inhibitors” (ASTEX THERAPEUTICS LIMITED, priority 2012, dated 2019).
